# Measured values from US20180120302A1.
# Experiments:
# [1] = target: Calcineurin; test: BSI, steady-state or end-point analysis, Ca2+ present
# [2] = target: Calcineurin; test: BSI control, 10 nM CaM and 100 nM Calcineurin, both in the absence of Ca2+
# [3] = target: Calcineurin; test: BSI, kinetic analysis (observed rates versus Calcineurin concentration), Ca2+ present
# [4] = target: FC region from IgG; test: BSI, steady-state (end-point) analysis with Prism, free solution
# [5] = target: FC region from IgG; test: BSI, kinetic analysis (observed rate versus IgG concentration), free solution
Substance,Kd [1] [nM],percent of the signal observed at the equivalent concentrations in the presence of Ca2+ [2] [%],Kd [3] [nM],Kd [4] [nM],Kd [5] [nM]
Calmodulin (from UniProt P0DP23 2-149),11.6,< 1.5,15.7,–,–
Protein A (from UniProt P38507 37-477),–,–,–,6.27,7.91
